This data set in a line: Intranasal administration of PYY(3-36) to humans. It is filed as in vivo.

On to PYY(3-36), for which the appetite result (administered intranasally to humans) is “reduce appetite”. Besides, where the note is “intranasal route”, the “plasma level of PYY peptide reached” value is recorded as “post-prandial physiological levels of a PYY peptide could be reached”.

(Values after US20090054326A1, “FORMULATIONS FOR ENHANCED MUCOSAL DELIVERY OF PYY” (NASTECH PHARMACEUTICAL COMPANY INC., priority 2005, published 2009).)
